From patent US9345786B2, “Maytansinoid derivatives” (priority 2013, dated 2016)

Tested on: A549 cells
Assay: growth inhibition of A549 cells (CCK-8)
Format: cell-based
Conditions: A549 (Kras mutation, Her2 negative), 72 hours
Description: Briefly, cells were detached by using 0.25% (vol/vol) trypsin and suspended in complete medium. Aliquots of cells were plated into 96-well microdilution plates. […] After 72 hours, plates were washed twice with PBS (pH 7.5), and analyzed for relative cell proliferation with CCK-8 reagent.
After 72 hours, plates were washed twice with PBS (pH 7.5), and analyzed for relative cell proliferation with CCK-8 reagent.

In the case of D-Lmcc-Bat0606, the “inhibition of growth of A549 cells” value is reported as “did not inhibit”.
